The test concerns the target T1, rat VPAC2 receptor (rat, UniProt P35000 23-437).
T1 sequence (looked up): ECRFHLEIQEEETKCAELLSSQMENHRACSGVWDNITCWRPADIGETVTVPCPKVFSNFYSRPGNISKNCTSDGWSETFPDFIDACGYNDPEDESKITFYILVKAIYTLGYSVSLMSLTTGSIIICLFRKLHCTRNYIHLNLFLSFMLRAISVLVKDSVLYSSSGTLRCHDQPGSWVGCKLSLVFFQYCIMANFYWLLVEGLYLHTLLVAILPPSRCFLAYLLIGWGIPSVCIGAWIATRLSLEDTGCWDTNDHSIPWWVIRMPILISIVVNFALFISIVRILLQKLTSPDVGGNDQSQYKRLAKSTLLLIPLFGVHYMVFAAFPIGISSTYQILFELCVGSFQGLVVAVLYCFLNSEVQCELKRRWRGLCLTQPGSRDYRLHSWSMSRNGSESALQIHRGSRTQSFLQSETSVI
Kind of test: cell-based or functional assay.

In the case of HSDAVFTDNYTRLRKQMAVKKYLNSILN (not fully specified) [VIP (vasoactive intestinal peptide)], the “EC50 for cAMP generation, DiscoveRx, CHO-PO cells” value was 0.79 nM.

These data come from US20090118167A1, “Selective Vpac2 Receptor Peptide Agonists” (Eli Lilly and Company Patent Division, priority 2004, published 2009).
